Assay results reported in US6187807A, “Methods of use and compositions of (S) (-)-amisulpride” (Sanofi-Synthelabo, priority 1999, dated 2001).

How the values were obtained:
D2 and D3 receptors = conditions: in words; Schoemaker et al. and Perrault et al. 1997; cited from earlier work
catalepsy = assay type: in vivo
Experimental: The propensity of the drugs to induce extrapyramidal side effects was assessed by measuring their potential to induce catalepsy and to antagonize apomorphine-induced stereotyped behaviour and the sedative potential of the drugs was evaluated by their capacity to decrease spontaneous locomotor activity in the rat.
The occurrence of catalepsy in rats was assessed using the four-cork test. This measurement was performed by placing each paw of the rat on a 2.5 cm high cork (diameter 1.2 cm). Distance between contralateral corks was 8 cm and between ipsilateral corks 13 cm. Catalepsy time was measured for a maximum of 2 min at 2 hours, and 4 hours after ip drug treatment.

## CCN1CCCC1CNC(=O)c1cc(S(=O)(=O)CC)c(N)cc1OC (racemic) [(R,S)-amisulpride]
D2 and D3 receptors
  Receptor blockade profile: preferential blockade of D2 and D3 receptors with presynaptic and limbic selectivity
catalepsy; (S)(-)-amisulpride compared with (R,S)-amisulpride, in words
  Potency of both compounds in models predictive of extrapyramidal and sedative side effects: quite similar
catalepsy; at doses up to 100 mg/kg, ip
  Induction of catalepsy, in words: neither compound induced catalepsy
